Screening data (PubChem)
Sampled rows, rich in hits. Any-hit rate of the full collection: about 2.3%.
Yeast UUG start: alters start codon recognition fidelity in yeast | S. cerevisiae UUG-firefly luciferase reporter, luminescence/redox ratio | activity score, % at 18.7 µM | hit rate 0.13% among 350,000 | AID 602363;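 active means replicate mean at a twofold rise or more, about +100% in these data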;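 further: firefly luciferase made from a UUG start codon reports start codon fidelity; reporter light over untreated wells divided by growth signal over untreated wells; some hits fall short of that in this replicate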
NRP1-CendR mod: modulators of CendR peptide binding to NRP-1, primary screen, biochemical, fluorescence polarization, uHTS. Neuropilin-1 (Homo sapiens), O14786. FAM-RPARPAR peptide binding to NRP-1. inhibition, % at 25 µM. hit rate 0.85% among 360,000;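 active = inhibition or corrected inhibition above about 18%, plus a signal ratio from 0.5 to 1.5, limit read from the data, passing the limit was not always enough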
MC4R antagonist: MC4R antagonists of cAMP signaling, primary screen, cell-based, TR-FRET, antagonist arm of biased-ligand search; MC4R-expressing cells, MTII-stimulated cAMP, LANCE TR-FRET; inhibition, % at 6.5 µM; hit rate 0.48% among 360,000;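 active = inhibition above its plate's cutoff, the mean of tested wells on that plate plus 3 SD, cut at about 29% in these data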
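Test system: U2OS cells stably expressing human melanocortin 4 receptor (MC4R); also added: Melanotan II challenge; compound: 6.5 µM single dose; timing: 30-min compound preincubation, 1-h Melanotan II challenge, 1-h detection, room temperature; signal: Eu-cAMP/anti-cAMP TR-FRET, emission 671 nm; repeats: one well per compound, no replicates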
ASAP1 inh: inhibitors of human ASAP1 ArfGAP activity, primary screen, biochemical, fluorescence polarization | ASAP1-stimulated ARF1 GTP hydrolysis, GDP FP detection | AID 624377, 2012 | Arf-GAP with SH3 domain, ANK repeat and PH domain-containing protein 1 (Homo sapiens), … | inhibition, % at 16.5 µM | hit rate 0.19% among 360,000; in the data active = inhibition above about 25%
MC4R ag barr: MC4R agonists recruiting beta-arrestin, primary screen, cell-based, luminescence, agonist arm of biased-ligand search; Melanocortin receptor 4 (Homo sapiens), P32245; U2OS MC4R beta-arrestin complementation; percent of melanotan II response, DMSO zero; activation, % at 8.9 µM; hit rate 0.98% among 360,000; AID 540308, 2011;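 active = activation above a per-plate cutoff, the mean activation of sample wells on that plate plus 3 SD, cut at about 8% in these data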
ARFGAP1 inh: inhibitors of rat ARFGAP1 GAP activity, primary screen, biochemical, fluorescence polarization, GDP tracer; ADP-ribosylation factor GTPase-activating protein 1 (Rattus norvegicus), Q62848; Arfgap1-stimulated ARF1 GTP hydrolysis, GDP FP detection; inhibition, % at 16.5 µM; hit rate 0.26% among 360,000; AID 651572, 2012;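 active = inhibition above a per-plate limit, mean inhibition of low control wells plus 3 SD, cut at about 25% in these data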
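Material: truncated rat Arfgap1 GAP domain; Incubation: compound-enzyme preincubation 20 min, reaction 120 min, detection 60 min, 25 °C; Read-out: percent inhibition of Arfgap1-stimulated GTP hydrolysis; Technique: FP, GDP Alexa 633 tracer displaced from anti-GDP antibody, 620/688 nm; Controls: No-Arfgap1 wells (100%) versus DMSO full-reaction wells (0%); Replication: single well per compound.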
Large screens that a line does not name were inactive.

Protein sequences, listed by entry. Tags and fused reporters are not part of them. Residues count along the entry.
Neuropilin-1 (Homo sapiens), O14786, UniProt O14786, whole entry, looked up: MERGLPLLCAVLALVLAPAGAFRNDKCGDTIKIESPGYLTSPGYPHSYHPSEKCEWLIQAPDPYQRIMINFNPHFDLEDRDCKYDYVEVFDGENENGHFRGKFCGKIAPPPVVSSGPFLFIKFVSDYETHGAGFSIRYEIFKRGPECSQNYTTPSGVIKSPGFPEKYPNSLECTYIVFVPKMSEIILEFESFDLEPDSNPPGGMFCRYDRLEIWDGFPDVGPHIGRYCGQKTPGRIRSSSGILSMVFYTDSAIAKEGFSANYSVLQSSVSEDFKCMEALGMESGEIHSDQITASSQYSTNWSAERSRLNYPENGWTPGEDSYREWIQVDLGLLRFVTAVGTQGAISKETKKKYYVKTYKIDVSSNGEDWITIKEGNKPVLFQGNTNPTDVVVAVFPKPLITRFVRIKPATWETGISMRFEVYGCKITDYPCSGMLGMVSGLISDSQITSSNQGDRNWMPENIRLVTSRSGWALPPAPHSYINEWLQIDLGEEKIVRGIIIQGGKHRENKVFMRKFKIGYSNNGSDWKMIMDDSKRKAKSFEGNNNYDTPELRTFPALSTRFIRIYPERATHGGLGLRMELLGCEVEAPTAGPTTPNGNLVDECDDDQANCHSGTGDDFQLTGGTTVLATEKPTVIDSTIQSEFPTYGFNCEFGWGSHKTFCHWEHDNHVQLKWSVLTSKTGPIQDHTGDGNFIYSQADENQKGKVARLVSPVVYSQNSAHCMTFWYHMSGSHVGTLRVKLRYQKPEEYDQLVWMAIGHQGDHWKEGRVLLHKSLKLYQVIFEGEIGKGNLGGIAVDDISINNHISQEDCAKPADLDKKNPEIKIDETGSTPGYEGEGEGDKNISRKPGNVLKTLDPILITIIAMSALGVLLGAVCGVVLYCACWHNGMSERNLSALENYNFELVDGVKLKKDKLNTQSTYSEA
Melanocortin receptor 4 (Homo sapiens), P32245, UniProt P32245, whole entry, looked up: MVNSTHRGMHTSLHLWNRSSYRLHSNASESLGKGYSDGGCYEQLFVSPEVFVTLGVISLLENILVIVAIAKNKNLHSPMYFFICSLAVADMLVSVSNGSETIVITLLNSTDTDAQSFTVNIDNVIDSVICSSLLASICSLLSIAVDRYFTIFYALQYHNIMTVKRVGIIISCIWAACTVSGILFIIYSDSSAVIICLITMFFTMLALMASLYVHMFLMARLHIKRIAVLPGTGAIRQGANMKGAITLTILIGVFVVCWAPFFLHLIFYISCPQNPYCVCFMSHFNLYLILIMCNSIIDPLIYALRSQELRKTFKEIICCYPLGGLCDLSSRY
ADP-ribosylation factor GTPase-activating protein 1 (Rattus norvegicus), Q62848, UniProt Q62848, whole entry, looked up: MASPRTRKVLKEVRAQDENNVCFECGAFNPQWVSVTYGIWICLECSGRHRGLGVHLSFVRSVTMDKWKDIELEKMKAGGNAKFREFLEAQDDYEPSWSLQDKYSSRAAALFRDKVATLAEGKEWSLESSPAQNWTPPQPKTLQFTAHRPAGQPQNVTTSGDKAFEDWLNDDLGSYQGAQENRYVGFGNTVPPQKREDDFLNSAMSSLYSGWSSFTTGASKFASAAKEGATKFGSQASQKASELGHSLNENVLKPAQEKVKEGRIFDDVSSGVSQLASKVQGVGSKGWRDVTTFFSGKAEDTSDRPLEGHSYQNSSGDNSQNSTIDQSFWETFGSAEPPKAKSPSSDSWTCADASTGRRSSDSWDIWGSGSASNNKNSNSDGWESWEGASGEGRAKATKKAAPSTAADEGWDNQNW
ADP-ribosylation factor GTPase-activating protein 1 (Rattus norvegicus), Q62848, UniProt Q62848, 1-136 limits assumed: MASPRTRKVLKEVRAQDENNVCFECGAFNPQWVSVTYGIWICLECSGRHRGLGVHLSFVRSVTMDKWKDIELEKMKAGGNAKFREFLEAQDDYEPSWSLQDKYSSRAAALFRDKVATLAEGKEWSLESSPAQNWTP

Cc1cc(NC(=O)CCC(=O)N(Cc2ccco2)C(C)(C)C(=O)NC2CCCCC2)no1	none (no result: Yeast UUG start)
Cc1cc(NC(=O)CCC(=O)N(Cc2cccs2)C(C)(C)C(=O)NC2CCCCC2)no1	NRP1-CendR mod 20
CC1CCCC(NC(=O)COC(=O)[C@@H](NC(=O)c2ccc(F)cc2)C(C)C)C1C (some centres undefined)	none
CC1CCCC(NC(=O)CCC(=O)c2ccc(F)cc2)C1C (centres undefined)	NRP1-CendR mod 26 (no result: Yeast UUG start)
CCOc1ccc(S(=O)(=O)N2CCN(C(=O)c3sccc3C)CC2)cc1	NRP1-CendR mod 27
CCCCOc1ccc(S(=O)(=O)N2CCN(C)CC2)cc1	NRP1-CendR mod 26
COc1ccc(S(=O)(=O)N2CCN(C)CC2)cn1	NRP1-CendR mod 22
C[C@@H]1CN([C@H](C)CO)C(=O)Cc2cc(NC(=O)Cn3cnnn3)ccc2O[C@@H]1CN(C)Cc1ccc(Oc2ccccc2)cc1	none (no result: NRP1-CendR mod, MC4R antagonist, ASAP1 inh, MC4R ag barr, ARFGAP1 inh)
C[C@H]1CCCCO[C@H](CN(C)Cc2ccc(C(=O)O)cc2)[C@@H](C)CN([C@@H](C)CO)C(=O)c2cc(NS(=O)(=O)c3ccc(Cl)cc3)ccc2O1	none (no result: NRP1-CendR mod, MC4R antagonist, ASAP1 inh, MC4R ag barr, ARFGAP1 inh)
C[C@H]1CN([C@@H](C)CO)C(=O)Cc2cc(NS(=O)(=O)c3cccs3)ccc2O[C@@H]1CN(C)C(=O)NC1CCCCC1	none (no result: NRP1-CendR mod, MC4R antagonist, ASAP1 inh, MC4R ag barr, ARFGAP1 inh)
CN1C(=O)c2cc(NC(=O)Nc3cccc(Cl)c3)ccc2OC[C@@H]2O[C@@H](CC(=O)NCCc3ccncc3)CC[C@@H]21	none (no result: NRP1-CendR mod, MC4R antagonist, ASAP1 inh, MC4R ag barr, ARFGAP1 inh)
CCCCOc1ccc(C(=O)N/C(=C/C=C/c2ccccc2)C(=O)NCCO)cc1	none
CCCCOc1ccc(C(=O)N/C(=C/C=C/c2ccccc2)C(=O)NCCCO)cc1	NRP1-CendR mod 22 (no result: Yeast UUG start)
O=C1CCC[C@@H]2Cc3nc4cc5c(cc4cc3[C@@H]3CCN1[C@H]23)OCO5	NRP1-CendR mod 24
C[C@@H]1CN([C@H](C)CO)C(=O)c2cccc(NC(=O)Nc3ccccc3)c2O[C@H]1CN(C)C(=O)NC1CCCCC1	none (no result: NRP1-CendR mod, MC4R antagonist, ASAP1 inh, MC4R ag barr, ARFGAP1 inh)
C[C@@H]1CN([C@@H](C)CO)C(=O)c2cc(NS(=O)(=O)c3ccccc3)ccc2O[C@@H]1CN(C)CC1CCCCC1	none (no result: NRP1-CendR mod, MC4R antagonist, ASAP1 inh, MC4R ag barr, ARFGAP1 inh)
C[C@@H]1CCCCO[C@H](CN(C)C(=O)Nc2ccccc2)[C@@H](C)CN([C@@H](C)CO)C(=O)c2cc(NC(=O)C3CCCCC3)ccc2O1	none (no result: NRP1-CendR mod, MC4R antagonist, ASAP1 inh, MC4R ag barr, ARFGAP1 inh)
Cc1nn(CCO)c(N)c1C1(O)C(=O)Nc2c(Cl)cc(Cl)cc21 (centres undefined)	NRP1-CendR mod 24
Cc1noc(N)c1C1(O)C(=O)Nc2c(Cl)cc(Cl)cc21 (centres undefined)	none (no result: Yeast UUG start)
CC(C)n1cnc2c(NCc3ccc(S(N)(=O)=O)cc3)nc(NCc3ccc(S(N)(=O)=O)cc3)nc21	NRP1-CendR mod 32
COc1ccc(CCNC(=O)c2cc(-c3ccccc3)on2)cc1OC	MC4R ag barr 9.5
COc1ccc(NC(=O)c2cc(-c3ccccc3)on2)cc1OC	none
COc1cc(/C=N/N=C2\CC3CCC2(C)C3(C)C)ccc1O (centres undefined)	NRP1-CendR mod 23
O=C(N/N=C/c1cn[nH]c1-c1ccc(Cl)cc1)c1ccc([N+](=O)[O-])cc1	none (no result: Yeast UUG start)
O=C(N/N=C\c1cn[nH]c1-c1ccc(Cl)cc1)c1cccs1	MC4R ag barr 8.8
CCCNC(=O)N(C)C[C@H]1Oc2ncc(C#Cc3ccncc3)cc2C(=O)N([C@@H](C)CO)C[C@H]1C	none (no result: NRP1-CendR mod, MC4R antagonist, ASAP1 inh, MC4R ag barr, ARFGAP1 inh)
Cc1cc(/C=C(\C#N)C(=O)OCC#N)c(C)n1CC(C)C	NRP1-CendR mod 33
Cc1cc(/C=C(\C#N)C(=O)OCC(=O)Nc2ccc(OC(F)F)cc2)c(C)n1CC(C)C	none
COC(=O)c1cc(S(=O)(=O)N2CCN(c3cccc(Cl)c3)CC2)c[nH]1	MC4R ag barr 9.1 (no result: ASAP1 inh, ARFGAP1 inh)
O=[N+]([O-])c1cnc(Sc2ccncn2)s1	MC4R antagonist 35
O=[N+]([O-])c1cnc(Sc2ccncn2)c([N+](=O)[O-])c1	none
C[C@@H]1CN([C@H](C)CO)C(=O)Cc2cc(NC(=O)c3ccncc3)ccc2O[C@H]1CN(C)Cc1ccc(C(=O)O)cc1	none (no result: NRP1-CendR mod, MC4R antagonist, ASAP1 inh, MC4R ag barr, ARFGAP1 inh)
COc1ccc2nc3ccccc3nc2c1N	NRP1-CendR mod 29
COc1ccc2nc3cccc(OC)c3nc2c1	NRP1-CendR mod 31
c1ccc2c(c1)Nc1cc3ccccc3cc1S2	none (no result: Yeast UUG start)
Cc1ccc2c(c1)Sc1c(ccc3ccccc13)N2	NRP1-CendR mod 48
COc1cccc(-c2cc(C(=O)N3CC4(C)CC3CC(C)(C)C4)no2)c1 (centres undefined)	none
CC1(C)CC2CC(C)(CN2C(=O)c2cc(-c3ccc(O)cc3)on2)C1 (centres undefined)	MC4R ag barr 8.9
Cc1cccc(NC(=O)Cn2nnc(C(=O)NCc3cccs3)c2N)c1C	MC4R ag barr 9.0
COc1ccc(NC(=O)Cn2nnc(C(=O)Nc3ccccc3C)c2N)cc1	NRP1-CendR mod 19 (no result: Yeast UUG start)
COc1ccc(NC(=O)Cn2nnc(C(=O)NCCc3ccccc3)c2N)cc1	none (no result: Yeast UUG start)
COCOc1ccc(C=O)cc1OCOC	NRP1-CendR mod 22
C/C=C/c1ccc(OCCOc2ccc(C=O)cc2)c(OC)c1	none
Cc1noc(C)c1S(=O)(=O)N(C)C[C@H]1OCCCC[C@@H](C)Oc2ccc(NS(=O)(=O)c3cccs3)cc2C(=O)N([C@@H](C)CO)C[C@H]1C	none (no result: NRP1-CendR mod, MC4R antagonist, ASAP1 inh, MC4R ag barr, ARFGAP1 inh)
